IL-2 act – qHTS of IL-2 Activators | IL-2 activation reporter assay, cell-based qHTS; stimulated with anti-CD3/CD4/CD28 beads; in transgenic mouse T cells | activation, % (series mostly up to about 46 µM) | 360,000 compounds, 0.065% hits; in the data active = activation above about 50%; inconclusive = mostly about 30% to 49%; also: 0% is about no effect
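Quantitative HTS in unstimulated transgenic mouse T cells, with memory T cells as non-tolerant control and PMA/ionomycin as tolerance-bypass control. Compound pretreatment lasted 60 minutes before 18 h bead stimulation; EGFP/DsRed fluorescence read.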
AT treatment – qHTS Assay for Identifying a Potential Treatment of Ataxia-Telangiectasia | F2112 A-T fibroblasts, KAP-1 phosphorylation AlphaLISA; neocarzinostatin DNA damage 30 min before lysis | Potency, µM (top dose mostly 57.5 µM), inactives show top-dose activation, actives largely listed as activators | 320,000 compounds, 0.19% hits | AID 485349, 2010; active = well fitted activation curve with a large enough effect; inconclusive = small, poorly fitted or top-dose-only effect; inactive = no such curve, though single readings can be large or run the other way; also: potency is read from the fitted curve at half-maximal effect; % of control where 0% means no effect; nearly all actives have a fitted effect of over 45% in size
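ATM-like activity read as KAP-1 phosphorylation via AlphaLISA donor/acceptor antibody pairs after lysis and 6 hr at 25C. Cells were ATM-null patient fibroblasts (F2112, hTERT), dosed 60 min, then exposed to the DSB inducer NCS for 30 min.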
Rango complex inh – qHTS Assay for Inhibitors of Rango (Ran-regulated importin-beta cargo) - Importin beta complex formation; Importin subunit beta-1 (Homo sapiens), Q14974; Rango CFP/YFP FRET sensor + importin beta, 45 min; Potency, µM (titrated, usually from 92.2 µM), for inactives: at the highest dose inhibition of complex formation; 340,000 compounds, 0.031% hits; AID 540263, 2011;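 also: potency is read from the fitted curve at half-maximal effect; 0% = DMSO wells and 100% = buffer wells lacking importin beta; nearly all actives have a fitted effect of over 15% in size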
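FRET biosensor (snurportin 1 IBB flanked by EYFP and cerulean), 50 nM, with compound 5 min, then 0.125 microM importin beta in PBS, 1 mM DTT, 0.02% Tween-20, 0.1% BSA. CFP/YFP ratio read after 45 min at room temperature; pre-read flags interference.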
Rango dissoc inh – qHTS Assay for Inhibitors of RanGTP induced Rango (Ran-regulated importin-beta cargo) - Importin beta complex dissociation | Snurportin-1 (Homo sapiens) + GTP-binding nuclear protein Ran (Homo sapiens) + Importin … | Biochemical FRET Rango-importin beta, RanGTP-induced dissociation | Potency, µM (highest dose often 46.1 µM), for inactives: at the top dose activity change, negative = inhibition | 340,000 compounds, 0.071% hits | AID 540253, 2011; also: potency is read from the fitted curve at half-maximal effect; % of control where 0% means no effect; nearly all actives have a fitted effect of over 45% in size
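Recombinant Rango FRET biosensor (EYFP–snurportin 1 IBB–cerulean CFP10) at 0.1 uM premixed with 0.25 uM importin beta in PBS, 1 mM DTT, 0.02% Tween-20, 0.1% BSA. Compound added 5 min; RanGTP-RCC1 (0.6 uM Ran, 2 mM GTP, 0.2 uM RCC1) then triggers release, read at 45 min.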
PKM2 act – qHTS Assay for Activators of Human Muscle isoform 2 Pyruvate Kinase; 260,000 compounds, 0.34% hits; Potency, µM (titrated, usually from 57.5 µM), without a hit: at the highest dose activation, hits mostly activators; purified PKM2, Kinase-Glo ATP luminescence, activation; response scale: 0% is enzyme alone, no compound; active = well fitted activation curve with a large enough effect; inconclusive = small, poorly fitted or top-dose-only effect; inactive = no such curve, though single readings can be large or run the other way; also: potency is read from the fitted curve at half-maximal effect; % is scaled to controls: 0 for no effect and ±100 for the full control effect; nearly all actives have a fitted effect of over 55% in size
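ATP formation by purified human PK-M2, quantified via coupled luciferase luminescence after 1 h at room temperature with 0.1 mM ADP and 0.5 mM PEP final.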
Starred values were filed as active, the others as inactive; ? = inconclusive; . = no result given. Most compounds without a hit are left out; they make up all but 0.59% or so of the library. Unless noted, calls follow the shape of the full dose curve.

The chains behind the UniProt entries cited, without tags or fusion partners.
Importin subunit beta-1 (Homo sapiens), Q14974, UniProt Q14974, whole entry, looked up: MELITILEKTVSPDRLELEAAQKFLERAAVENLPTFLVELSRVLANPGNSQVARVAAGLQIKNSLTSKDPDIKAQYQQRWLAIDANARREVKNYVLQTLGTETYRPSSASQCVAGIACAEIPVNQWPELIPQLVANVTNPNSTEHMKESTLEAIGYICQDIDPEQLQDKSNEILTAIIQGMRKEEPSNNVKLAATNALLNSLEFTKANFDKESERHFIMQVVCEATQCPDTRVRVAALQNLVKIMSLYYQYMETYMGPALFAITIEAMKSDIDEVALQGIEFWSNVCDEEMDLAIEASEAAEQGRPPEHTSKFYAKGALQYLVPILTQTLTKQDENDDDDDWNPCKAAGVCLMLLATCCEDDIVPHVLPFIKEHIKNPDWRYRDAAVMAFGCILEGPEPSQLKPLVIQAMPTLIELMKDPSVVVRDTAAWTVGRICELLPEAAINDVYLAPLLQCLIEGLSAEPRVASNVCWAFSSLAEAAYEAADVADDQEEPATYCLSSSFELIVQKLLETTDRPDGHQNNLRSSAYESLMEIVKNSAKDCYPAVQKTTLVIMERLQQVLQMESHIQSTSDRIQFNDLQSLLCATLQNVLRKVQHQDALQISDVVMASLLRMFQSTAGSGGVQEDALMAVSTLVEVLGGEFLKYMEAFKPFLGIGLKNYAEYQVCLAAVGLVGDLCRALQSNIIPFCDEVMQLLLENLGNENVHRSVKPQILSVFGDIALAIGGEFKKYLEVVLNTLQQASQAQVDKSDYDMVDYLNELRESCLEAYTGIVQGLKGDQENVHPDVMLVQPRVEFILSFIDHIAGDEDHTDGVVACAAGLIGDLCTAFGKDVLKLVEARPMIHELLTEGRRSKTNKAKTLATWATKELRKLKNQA

1: O=C(NNC(=O)c1cccc(Br)c1)Nc1ccc(Cl)cc1
2: O=C(NNC(=S)Nc1ccccc1)c1cccc(Br)c1
3: O=S(=O)(Nc1ccc(-c2nc3cccnc3s2)cc1)c1cc(F)ccc1F
4: CCc1ccc(S(=O)(=O)Nc2ccc(-c3nc4cccnc4s3)cc2)s1
5: N#C/C(=C\c1cn(CCOc2ccccc2F)c2ccccc12)C(=O)NCc1cccs1
6: Cc1ccccc1NS(=O)(=O)c1nnc(NC(=O)C(C)C)s1
7: COc1ccc(CN(C(=O)CN2C(=O)c3ccccc3S2(=O)=O)C(C(=O)NCC2CCCO2)c2ccco2)cc1 (stereo unspecified)
8: COC(=O)c1sc2nc(C)nc(SCC(=O)Nc3sccc3C(N)=O)c2c1C

| assay / compound | 1 | 2 | 3 | 4 | 5 | 6 | 7 | 8 |
| --- | --- | --- | --- | --- | --- | --- | --- | --- |
| IL-2 act | -0.5 | 2.7 | 0.4 | 1.0 | -0.4 | 0.0 | 0.2 | -0.6 |
| AT treatment | 28.2µM* | . | 12.6µM* | 32.9% | -3.7% | 8.1% | 7.7% | 3.0% |
| Rango complex inh | 5.0% | 0.0% | ? | ? | ? | -1.3% | 0.7% | 3.4% |
| Rango dissoc inh | 2.1% | 1.1% | ? | ? | 5.8µM* | -0.7% | 1.4% | 8.0% |
| PKM2 act | 1.4% | -0.5% | -3.5% | -5.0% | 0.0% | . | 2.5% | . |

From no. 3 as far as 4, as listed above:
3: O=S(=O)(Nc1ccc(-c2nc3cccnc3s2)cc1)c1cc(F)ccc1F
4: CCc1ccc(S(=O)(=O)Nc2ccc(-c3nc4cccnc4s3)cc2)s1

| assay / compound | 3 | 4 |
| --- | --- | --- |
| IL-2 act | 0.4 | 1.0 |
| AT treatment | 12.6µM* | 32.9% |
| Rango complex inh | ? | ? |
| Rango dissoc inh | ? | ? |
| PKM2 act | -3.5% | -5.0% |

Later entries.
9: Cc1ccc(S(=O)(=O)N2CCN(C(=O)CCn3nc(C)c(C)c3C)CC2)cc1
10: Cc1nn(CCC(=O)N2CCN(S(=O)(=O)c3ccc(Cl)cc3)CC2)c(C)c1C
11: O=C1C=C(c2ccc(F)cc2OCc2ccccc2)C[C@@H](c2ccc(Cl)cc2)C1
12: COCCCN(C(=O)c1cc2c(s1)CCCCC2)c1c(N)n(Cc2ccccc2)c(=O)[nH]c1=O
13: Cc1ccc(C(=O)N/C(=C\c2ccc(-c3cc(Cl)ccc3Cl)o2)C(=O)NCc2cccnc2)cc1
14: Cc1cc(-c2nnc(SCC(=O)N3C(C)CCCC3C)o2)no1 (stereo unspecified)
15: CC1CCCC(C)N1C(=O)CSc1nnc(C2CCCCC2)o1 (stereo unspecified)
16: CC(C)c1ccc(NC(=O)CSC(C)c2nc3ccccc3c(=O)[nH]2)cc1 (stereo unspecified)

| assay / compound | 9 | 10 | 11 | 12 | 13 | 14 | 15 | 16 |
| --- | --- | --- | --- | --- | --- | --- | --- | --- |
| IL-2 act | 6.6 | 0.1 | -0.5 | -0.9 | 0.1 | -1.8 | -3.0 | -0.6 |
| AT treatment | -6.5% | 1.6% | -2.2% | -2.2% | -14.4% | 8.8% | 31.6µM* | 3.98µM* |
| Rango complex inh | 3.8% | -2.1% | 1.0% | -3.4% | ? | -1.3% | -0.4% | -0.5% |
| Rango dissoc inh | 0.6% | -6.1% | -15.2% | 4.2% | 10.3µM* | -8.3% | 0.2% | -2.4% |
| PKM2 act | 14.1µM* | 22.4µM* | . | . | 5.0% | -0.6% | -7.2% | -1.5% |

17: Cc1noc(C)c1NC(=O)N(C)C[C@H]1OCc2cnnn2CCCC(=O)N([C@@H](C)CO)C[C@H]1C
18: CCOC(=O)C1CCCN(C(=O)c2cccc(S(=O)(=O)N(C)c3ccc(C)cc3)c2)C1 (stereo unspecified)
19: COc1ccc(Cn2c(=O)[nH]c3cc(C(=O)N4CCN(Cc5ccccc5)CC4)ccc3c2=O)cc1
20: COc1ccccc1N1CCN(C(=O)c2ccc3c(=O)n(Cc4ccco4)c(=S)[nH]c3c2)CC1
21: CCC(=O)N[C@H]1CC[C@@H](CCn2cc(C3CC3)nn2)O[C@@H]1CO
22: CCN(CC)c1ccc(/C=C(/C#N)c2nc3ccc(C)cc3[nH]2)c(OC(C)C)c1
23: COc1ccc2cc(S(=O)(=O)c3ccccc3)c(=O)oc2c1
24: Cc1ccc(S(=O)(=O)c2cc3ccc(O)cc3oc2=O)cc1C

| assay / compound | 17 | 18 | 19 | 20 | 21 | 22 | 23 | 24 |
| --- | --- | --- | --- | --- | --- | --- | --- | --- |
| IL-2 act | -0.8 | -1.1 | 0.4 | -0.5 | -0.3 | 218.5* | -0.3 | -0.3 |
| AT treatment | . | -1.7% | 5.2% | -2.3% | . | -10.7% | -4.6% | 20µM* |
| Rango complex inh | . | -2.8% | -1.5% | -0.5% | . | ? | 0.8% | -1.0% |
| Rango dissoc inh | . | -7.0% | -2.2% | 2.5% | . | ? | -3.0% | ? |
| PKM2 act | . | . | 12.6µM* | 1.12µM* | . | -4.1% | 5.01µM* | . |

25: COC(CNC(=O)CN1CCN(Cc2ccc(F)cc2Cl)C1=O)OC
26: COC(=O)[C@]12CCCCC=C1N(Cc1cccc3ccccc13)C(=O)[C@H](CC(=O)NCc1cccc(C(F)(F)F)c1)C2
27: COc1cc(/C=C(/C(=O)c2cccs2)c2nc3ccccc3[nH]2)ccc1O
28: O=c1[nH]c2ccccc2nc1/C=C(\O)c1cccs1
29: O=C(/C(=C/c1ccc(Cl)cc1)c1nc2ccccc2[nH]1)c1cccs1
30: O=C(/C(=C\c1ccccc1)c1nc2ccccc2[nH]1)c1ccc(Cl)cc1
31: CCOC(=O)c1cc2c(ccn2C)n1CC(=O)N1CCN(c2cccc(C(F)(F)F)c2)CC1
32: O=C(O)CCCCCCCCCCCNC(=O)NC12CC3CC(CC(C3)C1)C2

| assay / compound | 25 | 26 | 27 | 28 | 29 | 30 | 31 | 32 |
| --- | --- | --- | --- | --- | --- | --- | --- | --- |
| IL-2 act | 0.9 | -1.1 | -0.7 | 147.6* | -5.1 | -3.4 | 0.7 | -0.1 |
| AT treatment | -11.8% | . | 25.1µM* | 8.9% | 3.55µM* | 7.8% | 1.0% | -4.9% |
| Rango complex inh | 1.0% | . | -0.5% | ? | -0.1% | -0.9% | 0.4% | 0.6% |
| Rango dissoc inh | -6.8% | . | -24.7% | ? | 2.0% | 2.1% | ? | 25.3% |
| PKM2 act | . | . | 7.2% | -9.8% | -15.1% | -1.0% | 31.6µM* | . |

Given as labelled records: two of the compounds above
8. COC(=O)c1sc2nc(C)nc(SCC(=O)Nc3sccc3C(N)=O)c2c1C
  IL-2 act: -0.6; AT treatment: 3.0%; Rango complex inh: 3.4%; Rango dissoc inh: 8.0%; PKM2 act: .
9. Cc1ccc(S(=O)(=O)N2CCN(C(=O)CCn3nc(C)c(C)c3C)CC2)cc1
  IL-2 act: 6.6; AT treatment: -6.5%; Rango complex inh: 3.8%; Rango dissoc inh: 0.6%; PKM2 act: 14.1µM*

(continued)
33: Cc1cccc(NC(=O)c2ccccc2NC(=O)C2CCCCC2)c1C
34: O=C(Nc1ccccc1)c1ccccc1NC(=O)C1CCCCC1
35: O=C1NC[C@@H](CCCCN2CCN(CC3CCCCC3)C(=O)C2=O)N(CC2CCCCC2)C1=O
36: Oc1cc(Nc2ccncc2)cc2cccnc12
37: Oc1cc(Nc2cccnc2)cc2cccnc12
38: N#Cc1cc2cc(Cl)ccc2[nH]c1=O
39: O=S1(=O)CC(N2CC=CC2)CN1Cc1cn(Cc2ccc(F)cc2)nn1 (stereo unspecified)
40: CCOc1cc(C(=O)OCC(=O)Nc2ccc(F)cc2Cl)ccc1OCC(=O)N1CCOCC1

| assay / compound | 33 | 34 | 35 | 36 | 37 | 38 | 39 | 40 |
| --- | --- | --- | --- | --- | --- | --- | --- | --- |
| IL-2 act | -1.8 | -2.7 | 0.6 | -1.7 | -3.6 | -0.2 | -0.7 | -2.3 |
| AT treatment | 1.0% | 2.9% | . | -11.0% | -15.8% | . | . | -1.8% |
| Rango complex inh | -6.1% | -1.4% | . | 41.1µM* | 2.4% | . | . | -1.4% |
| Rango dissoc inh | -10.3% | 3.6% | . | ? | 7.8% | . | . | -15.4% |
| PKM2 act | 28.2µM* | 0.9% | . | . | . | . | . | . |

41: Cn1c(N2CCOCC2)c(/C=N/OC(=O)c2ccc(F)cc2)c2ccccc21
42: Cc1ccc(C(=O)O/N=C/c2c(N3CCOCC3)n(C)c3ccccc23)cc1
43: COC(C[C@@H]1O[C@H]1C(=O)[C@@H](C)OCc1ccccc1)OC
44: Cc1cc(C)c2nc(N3C(=O)C(O)=C(C(=O)c4ccco4)C3c3cccc(O)c3)sc2c1 (stereo unspecified)
45: Cc1cc(C)c2nc(N3C(=O)C(O)=C(C(=O)c4ccco4)C3c3ccc(O)cc3)sc2c1 (stereo unspecified)
46: Cc1ccc2nc(N3C(=O)C(O)=C(C(=O)c4ccc(C)o4)C3c3ccco3)sc2c1 (stereo unspecified)

| assay / compound | 41 | 42 | 43 | 44 | 45 | 46 |
| --- | --- | --- | --- | --- | --- | --- |
| IL-2 act | -1.6 | -1.6 | 0.3 | 1.1 | 1.6 | -1.0 |
| AT treatment | 35.5µM* | 9.2% | . | -2.4% | -12.3% | -7.1% |
| Rango complex inh | 3.8% | 2.8% | -0.9% | ? | ? | ? |
| Rango dissoc inh | -0.3% | 2.1% | 3.6% | 4.11µM* | 25.9µM* | ? |
| PKM2 act | 2.2% | 0.1% | . | . | . | . |
